Assay results from patent US20260193250A1, “TOLL-LIKE RECEPTOR 7 AGONISTS AS IMMUNE-STIMULATORS TO ELICIT THE INNATE ANTITUMOR IMMUNITY” (Merck Patent GmbH, priority 2022, published 2026).

Chains of the proteins cited; added tags and fusions are not shown. Residues count along the entry.
UniProt Q9NYK1, 27-1049 limits assumed: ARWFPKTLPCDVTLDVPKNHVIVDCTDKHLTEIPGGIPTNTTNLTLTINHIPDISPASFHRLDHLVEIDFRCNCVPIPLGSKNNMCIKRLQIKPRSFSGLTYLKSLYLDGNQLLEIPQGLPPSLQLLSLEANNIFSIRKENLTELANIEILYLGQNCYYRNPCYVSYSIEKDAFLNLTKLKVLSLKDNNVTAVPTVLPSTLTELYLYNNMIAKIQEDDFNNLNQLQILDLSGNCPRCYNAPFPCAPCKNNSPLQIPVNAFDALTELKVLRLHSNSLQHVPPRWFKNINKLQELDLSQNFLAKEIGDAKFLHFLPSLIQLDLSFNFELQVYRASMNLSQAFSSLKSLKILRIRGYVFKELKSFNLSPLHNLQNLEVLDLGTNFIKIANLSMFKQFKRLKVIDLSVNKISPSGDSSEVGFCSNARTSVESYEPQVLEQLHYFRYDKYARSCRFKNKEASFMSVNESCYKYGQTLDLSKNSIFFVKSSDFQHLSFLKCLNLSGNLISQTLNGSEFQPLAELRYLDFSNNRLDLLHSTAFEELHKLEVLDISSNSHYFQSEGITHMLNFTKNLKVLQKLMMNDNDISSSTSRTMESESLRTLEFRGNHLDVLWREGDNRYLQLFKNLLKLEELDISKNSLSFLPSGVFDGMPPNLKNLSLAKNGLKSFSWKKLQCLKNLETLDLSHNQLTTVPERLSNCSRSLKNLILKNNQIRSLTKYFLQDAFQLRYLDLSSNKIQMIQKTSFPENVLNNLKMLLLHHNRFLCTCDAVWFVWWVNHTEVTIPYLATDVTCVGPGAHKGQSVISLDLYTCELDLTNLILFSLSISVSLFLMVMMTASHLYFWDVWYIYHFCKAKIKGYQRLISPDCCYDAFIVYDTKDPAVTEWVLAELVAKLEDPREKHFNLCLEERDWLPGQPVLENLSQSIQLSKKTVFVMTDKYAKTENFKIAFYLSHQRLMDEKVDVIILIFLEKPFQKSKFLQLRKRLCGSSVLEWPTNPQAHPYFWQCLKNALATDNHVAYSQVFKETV
UniProt Q9NR97, 27-1041 limits assumed: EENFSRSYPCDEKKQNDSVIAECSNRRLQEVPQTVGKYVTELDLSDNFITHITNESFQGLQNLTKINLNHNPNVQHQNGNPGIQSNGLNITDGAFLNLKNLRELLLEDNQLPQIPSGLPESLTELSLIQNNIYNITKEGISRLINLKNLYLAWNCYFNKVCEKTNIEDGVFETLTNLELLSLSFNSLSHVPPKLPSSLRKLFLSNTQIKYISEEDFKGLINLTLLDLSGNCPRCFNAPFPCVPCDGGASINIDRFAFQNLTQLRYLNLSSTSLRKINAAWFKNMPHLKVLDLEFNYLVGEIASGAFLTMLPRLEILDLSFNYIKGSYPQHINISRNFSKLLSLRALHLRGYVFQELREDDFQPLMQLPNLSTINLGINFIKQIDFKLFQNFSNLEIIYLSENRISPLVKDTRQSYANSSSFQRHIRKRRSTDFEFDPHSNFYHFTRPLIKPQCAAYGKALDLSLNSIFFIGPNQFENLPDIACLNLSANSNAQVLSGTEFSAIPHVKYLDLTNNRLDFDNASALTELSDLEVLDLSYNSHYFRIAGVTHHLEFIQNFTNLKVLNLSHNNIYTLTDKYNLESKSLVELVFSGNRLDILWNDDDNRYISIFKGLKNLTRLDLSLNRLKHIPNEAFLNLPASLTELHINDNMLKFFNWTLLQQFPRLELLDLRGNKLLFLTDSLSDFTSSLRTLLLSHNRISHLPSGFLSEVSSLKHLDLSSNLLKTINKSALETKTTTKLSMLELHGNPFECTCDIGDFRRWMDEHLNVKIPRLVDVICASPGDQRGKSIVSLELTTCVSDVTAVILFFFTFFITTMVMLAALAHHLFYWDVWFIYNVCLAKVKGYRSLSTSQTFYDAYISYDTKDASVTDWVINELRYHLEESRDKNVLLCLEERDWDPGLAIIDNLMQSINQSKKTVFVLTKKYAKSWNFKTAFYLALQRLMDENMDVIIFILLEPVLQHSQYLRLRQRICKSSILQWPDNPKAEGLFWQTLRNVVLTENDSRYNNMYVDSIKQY

Experiments:
hTLR7 = hTLR7 (Homo sapiens, UniProt Q9NYK1); test: TLR7 reporter assay in HEK-Blue cells (SEAP, Quanti-Blue); assay type: cell-based; details: read-out: TLR7 EC50, 24 hours incubation, SEAP absorbance at 620 nm
hTLR8 = hTLR8 (Homo sapiens, UniProt Q9NR97); test: TLR8 reporter assay in HEK-Blue cells (SEAP, Quanti-Blue); assay type: cell-based; details: read-out: TLR8 EC50, 24 hours incubation, SEAP absorbance at 620 nm
[1] = test system: Peripheral blood mononuclear cells (PBMC); test: TNFα secretion from PBMCs; details: read-out: TNFα EC50; human PBMCs, 18 hours incubation, MILLIPLEX bead panel

Structure (SMILES)	EC50 (hTLR7) [nM]	EC50 (hTLR8) [nM]	EC50 [1] [nM]
CCOCc1nc2c(N)nc3ccccc3c2n1CC(C)(C)OCCNC(=O)C(C)(C)N	10 to 100	1000 to 10000	> 10000
CCCCNc1nc(N)c2[nH]c(=O)n(Cc3ccc(C(=O)NCC(=O)O)cc3)c2n1	1000 to 10000	> 10000	1000 to 10000
CCCCc1nc2c(N)nc3ccccc3c2n1CCN1CCNCC1	100 to 1000	> 10000	1000 to 10000
CCOCc1nc2c(N)nc3ccccc3c2n1CC(C)(C)OCCN	10 to 100	10 to 100	–
CCCCc1nc2c(N)nc3ccccc3c2n1CCCCN	–	–	1000 to 10000
